Where two headings read alike, the source gives them in different places. Some compounds may have been tested in ways that are not shown here.
How the values were obtained:
dcLVs [1] = system: dcLVs
dcLVs [2] = test: Contraction or dilation of exposed dcLVs after applying agents; assay type: in vivo, mouse; conditions: FIG. 39B

For sodium nitroprusside, the “CSF drainage (CSF tracer in dcLN)” value (dcLVs [1]; 30 μM of nitric oxide donor) was “no change”, the “CSF drainage (CSF tracer in dcLN)” value (dcLVs [1]; low dosage of nitric oxide donor, 3 μM) was “enhanced” and the “amount of CSF tracer (in dcLV)” value (dcLVs [2]) was “increased”.
